Experimental data taken from PubChem BioAssay AID463195 (Sanford-Burnham Center for Chemical Genomics, 2010).
The list shows a part of the results, in another mix than the full data. Activity calls are given as the source filed them.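 Rule for the calls: active = inhibition of 40% or more at the single tested concentration; inactive = the rest.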

assay: wild-type TIM10 yeast growth inhibition – luminescence, uHTS, counter-screen for tim10-1 yeast inhibitor project, primary screen (AID 463195);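 note: wild-type TIM10 isogenic control strain grown at permissive 25 °C; 0% = DMSO yeast wells and 100% = minimal medium wells without yeast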; settings: S. cerevisiae TIM10 strain growth, BacTiter-Glo luminescence, 24 h; at 10 µM; hits give high values

Row | Compound | inhibition
1 | Cc1ccc(OCC(C)C)c(CN(CCCl)CCCl)c1 | inactive: 17.8%
2 | CCOC(=O)N1CCC(Nc2cccc(C)c2)CC1 | inactive: -12%
3 | CCOc1ccc(C)cc1CN(CCCl)CCCl | inactive: -6.37%
4 | COc1ccc(NC2CCN(CCc3ccccc3)CC2)c(OC)c1 | inactive: -14.9%
5 | CCOC(=O)N1CCC(Nc2ccc(F)cc2)CC1 | active: 65.1%
6 | CCCCOc1ccc(C(=O)NCC2(N3CCOCC3)CCCCC2)cc1 | inactive: 13.3%
7 | O=C(NCC1(N2CCCCC2)CCCCC1)c1ccc(F)cc1 | inactive: -12.9%
8 | O=C(NCC1(N2CCOCC2)CCCCC1)c1cc2ccccc2o1 | inactive: 4.51%
9 | Cc1cc(C)cc(N(C(=O)c2ccccc2)C2CCN(C(=O)OC(C)(C)C)CC2)c1 | inactive: -1.53%
10 | O=C(NCC1(N2CCCCC2)CCCCC1)c1ccc(Cl)nc1 | inactive: 3.87%
11 | CCOC(=O)N1CCC(Nc2ccc(OC)cc2)CC1 | inactive: -14.5%
12 | COc1ccc(Cl)cc1C(=O)NCC1(N2CCOCC2)CCCCC1 | inactive: 9.14%
13 | O=C(NCC1(N2CCCCC2)CCCCC1)c1ccc(Cl)s1 | inactive: 2.33%
14 | N#CC1(Nc2ccccc2)CCN(Cc2ccccc2)CC1 | inactive: 5.47%
15 | O=C(OC1CN2CCC1CC2)C1c2ccccc2Oc2ccccc21 (configuration not stated) | inactive: -22.9%
16 | O=C(NCC1(N2CCCCC2)CCCCC1)c1cccs1 | inactive: 1.41%
17 | O=C(NCC1(N2CCCCC2)CCCCC1)c1ccc(=O)[nH]c1 | inactive: 5.33%
18 | CC(C)(C)OC(=O)N1CCC(N(C(=O)c2ccccc2)c2ccc(F)cc2)CC1 | inactive: 12.4%
19 | COc1ccc(C(=O)NCC2(N3CCCCC3)CCCCC2)c(OC)c1OC | inactive: 16.4%
20 | COc1ccc(C(=O)NCC2(N3CCCCC3)CCCCC2)cc1 | inactive: 6.65%
21 | CSc1ccccc1C(=O)NCC1(N2CCCCC2)CCCCC1 | inactive: 5.34%
22 | CN1CCC(Nc2cccc(F)c2)CC1 | inactive: 1.62%
23 | O=C(NCC1(N2CCCCC2)CCCCC1)c1cncc(Br)c1 | inactive: 3.48%

Row | Compound | inhibition
24 | CN(C)c1cccc(C(=O)NCC2(N3CCCCC3)CCCCC2)c1 | inactive: 3.7%
25 | COc1ccc(CN(CCCl)CCCl)cc1Cl | inactive: 12.2%
26 | CC(C)c1ccc(NC2CCN(C(=O)OC(C)(C)C)CC2)cc1 | inactive: 33.8%
27 | O=C(NCC1(N2CCOCC2)CCCCC1)c1cc(F)c(F)cc1Cl | inactive: 1.26%
28 | COc1cc(OC)c(C(=O)NCC2(N(C)C)CCCCC2)cc1OC | inactive: -14.2%
29 | O=C(NCC1(N2CCCCC2)CCCCC1)c1cccc(C(F)(F)F)c1 | inactive: 4.87%
30 | CN1CCN(CCOC(=O)C(O)(c2ccccc2)c2ccccc2)CC1 | inactive: 2.44%
31 | CC(C)c1ccc(C(=O)NCC2(N3CCOCC3)CCCCC2)cc1 | inactive: 21%
32 | COc1ccc(NC2CCN(C(=O)OC(C)(C)C)CC2)cc1 | inactive: 9.53%
33 | COc1cc(C(=O)NCC2(N3CCCCC3)CCCCC2)ccc1OC(F)F | inactive: -0.026%
34 | O=C(NCC1(N2CCOCC2)CCCCC1)c1cc(=O)[nH]c2ccccc12 | inactive: -13.2%
35 | O=C(NCC1(N2CCCCC2)CCCCC1)c1ccc(OC(F)F)cc1 | inactive: -0.025%
36 | O=C(NCC1(N2CCCCC2)CCCCC1)c1cccc([N+](=O)[O-])c1 | inactive: 2.01%
37 | CSc1ccc(C(=O)NCC2(N3CCOCC3)CCCCC2)cc1 | inactive: 9.49%
38 | N#CC1(Nc2ccccc2)CCN(CCc2ccccc2)CC1 | inactive: -6.04%
39 | CCN1CCC(Nc2ccc(Cl)cc2)CC1 | inactive: -12.5%
40 | CCCN1CCC(Nc2cc(OC)cc(OC)c2)CC1 | inactive: -1.77%
41 | c1ccc(CN2CCC(Nc3ccccc3)CC2)cc1 | inactive: -0.835%
42 | CN(C)C1(CNC(=O)c2cccc(C#N)c2)CCCCC1 | inactive: 1.51%
43 | CC(C)(C)OC(=O)N1CCC(N(C(=O)c2ccccc2)c2ccc(Cl)cc2)CC1 | inactive: 22.3%
44 | N#Cc1ccc(C(=O)NCC2(N3CCCCC3)CCCCC2)cc1 | inactive: 7.24%
45 | N/C(=N\O)c1c(N)no[n+]1[O-] | inactive: 0.598%
46 | CCOC(=O)N1CCC(Nc2ccc(C)cc2)CC1 | inactive: -5.14%

Row | Compound | inhibition
47 | CCc1cc(C(=O)NCC2(N3CCCCC3)CCCCC2)sc1C | inactive: -8.15%
48 | O=C(OC1CN2CCC1CC2)C1c2ccccc2C=Cc2ccccc21 (configuration not stated) | inactive: -3.78%
49 | O=C(NCC1(N2CCOCC2)CCCCC1)c1cc(Br)ccc1Cl | inactive: 1.79%
50 | COc1cc(C(=O)NCC2(N3CCOCC3)CCCCC2)cc(OC)c1C | inactive: 11%
51 | COc1ccc(C(=O)NCC2(N3CCOCC3)CCCCC2)cc1OC | inactive: 6.45%
52 | CCC(CO)(C(=O)OC1CN2CCC1CC2)c1ccccc1 (configuration not stated) | inactive: -2.62%
53 | COc1cc(OC)cc(C(=O)NCC2(N3CCOCC3)CCCCC2)c1 | inactive: -6.28%
54 | COc1cccc(C(=O)N(c2cc(C)cc(C)c2)C2CCN(C(=O)OC(C)(C)C)CC2)c1 | inactive: 1.03%
55 | CCCOc1ccc(C)cc1CN(CCCl)CCCl | inactive: -5.76%
56 | CN1CCC(Nc2ccc(Cl)cc2)CC1 | inactive: 3.9%
57 | CN1CCC(Nc2ccc(F)c(Cl)c2)CC1 | inactive: -5.24%
58 | CCOc1ncccc1C(=O)NCC1(N2CCOCC2)CCCCC1 | inactive: 22.2%
59 | CCCOc1ccc(C(=O)NCC2(N(C)C)CCCCC2)cc1 | inactive: 0.71%
60 | O=C(O)C1(Nc2ccccc2)CCN(Cc2ccccc2)CC1 | inactive: -27.6%
61 | CC(C)(C)OC(=O)N1CCC(Nc2ccccc2)CC1 | inactive: 1.12%
62 | CCN1CCC(Nc2cccc(F)c2)CC1 | inactive: 4.35%
63 | CN(C)c1ccc(C(=O)NCC2(N3CCCCC3)CCCCC2)cc1 | inactive: -18%
64 | O=C(NCC1(N2CCCCC2)CCCCC1)c1ccco1 | inactive: 7.62%
65 | COc1cc(OC)cc(C(=O)NCC2(N3CCCCC3)CCCCC2)c1 | inactive: -6.57%
66 | Fc1ccccc1NC1CCN(Cc2ccccc2)CC1 | inactive: -8.69%
67 | Cc1ccc(C(=O)NCC2(N3CCCCC3)CCCCC2)o1 | inactive: 12.6%
